# This is a selection; strong and weak results do not stand in their true shares. Some structures show a salt or complex split into parts, the way the source records it. Active and inactive are the calls of the source. Rule as the data show it: active = inhibition above about 25%; inactive = the rest.
# Sequences of proteins named here, by UniProt entry; tags and fusion partners are left off. Residues count along the entry.
# UniProt Q9ULH1, 325-724 limits assumed: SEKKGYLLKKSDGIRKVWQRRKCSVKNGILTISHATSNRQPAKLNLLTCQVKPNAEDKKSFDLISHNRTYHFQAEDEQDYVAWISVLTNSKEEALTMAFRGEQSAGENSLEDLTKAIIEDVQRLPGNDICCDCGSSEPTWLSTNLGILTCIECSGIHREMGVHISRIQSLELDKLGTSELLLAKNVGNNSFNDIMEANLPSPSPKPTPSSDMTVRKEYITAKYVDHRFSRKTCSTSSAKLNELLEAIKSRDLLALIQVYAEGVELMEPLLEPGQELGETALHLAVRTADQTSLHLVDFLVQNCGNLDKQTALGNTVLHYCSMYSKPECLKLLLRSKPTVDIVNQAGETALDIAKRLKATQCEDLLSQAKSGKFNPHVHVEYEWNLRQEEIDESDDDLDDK
# Biological target: Arf-GAP with SH3 domain, ANK repeat and PH domain-containing protein 1 (Homo sapiens) (UniProt Q9ULH1)
# Assay: inhibitors of human ASAP1 ArfGAP activity, primary screen, biochemical, fluorescence polarization (AID 624377);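 also: 0% = vehicle with enzyme and substrate and 100% = no enzyme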
# Conditions: ASAP1-stimulated ARF1 GTP hydrolysis, GDP FP detection; at 16.5 µM; hits give high values
row,Structure (SMILES),inhibition
1,CCOC(=O)c1ccc(NP(C)(=O)Oc2cc(C)cc(C)c2)cc1 (centres undefined),inactive: 6.74%
2,Cc1cc(C)cc(OP(C)(=O)Nc2ccc(C)cc2C)c1 (centres undefined),inactive: 4%
3,COc1ccccc1OP(C)(=O)Nc1cccc(Br)c1 (centres undefined),inactive: -7.08%
4,Cc1ccc(C)c(NP(C)(=O)Oc2ccccc2)c1 (centres undefined),inactive: -9.55%
5,CP(=O)(Nc1cccc(Br)c1)Oc1ccccc1 (centres undefined),inactive: -6.11%
6,Cc1cc(C)cc(OP(C)(=O)Nc2ccccn2)c1 (centres undefined),inactive: 2.54%
7,O=C(O)c1cccc(Nc2c([N+](=O)[O-])cc([N+](=O)[O-])cc2[N+](=O)[O-])c1,inactive: -4.66%
8,CC1=NCCc2c1[nH]c1ccccc21.O=[N+]([O-])c1cc([N+](=O)[O-])c(O)c([N+](=O)[O-])c1,inactive: -6.01%
9,CCOC(=O)C(CC)C1=NC(C)(C)Cc2ccccc21.O=[N+]([O-])c1cc([N+](=O)[O-])c(O)c([N+](=O)[O-])c1 (centres undefined),inactive: 4.74%
10,O=[N+]([O-])c1cc([N+](=O)[O-])c(Nc2nnnn2CCO)c([N+](=O)[O-])c1,inactive: -1.02%
11,COc1ccc(-c2ccccn2)cc1.O=[N+]([O-])c1cc([N+](=O)[O-])c(O)c([N+](=O)[O-])c1,inactive: -3.64%
12,CP(=O)(Nc1ccc(SC(F)(F)F)cc1)Oc1ccccc1 (centres undefined),inactive: 16.9%
13,CCCOc1ccc(NP(C)(=O)Oc2ccc(Cl)cc2)cc1 (centres undefined),inactive: 7.57%
14,CN1CCCCC1COC(=O)C1(O)c2ccccc2CCc2ccccc21 (centres undefined),inactive: -6.46%
15,COc1ccccc1OP(C)(=O)Nc1c(C)cccc1C (centres undefined),inactive: -7.81%
16,CN(Cc1cccnc1)C(=O)COc1ccc(Cl)c(Cl)c1.O=[N+]([O-])c1cc([N+](=O)[O-])c(O)c([N+](=O)[O-])c1,inactive: 11.4%
17,O=[N+]([O-])c1cc([N+](=O)[O-])c(-n2nnc3ccccc32)c([N+](=O)[O-])c1,inactive: 17.2%
18,Cc1nc2ccc3ccccc3c2s1.O=[N+]([O-])c1cc([N+](=O)[O-])c(O)c([N+](=O)[O-])c1,inactive: -1.68%
19,O=[N+]([O-])c1cc([N+](=O)[O-])c(-c2cnn(-c3ccccc3)c2)c([N+](=O)[O-])c1,inactive: 9.72%
20,Cc1cc(C)cc(OP(C)(=O)Nc2ccc(SC(F)(F)F)cc2)c1 (centres undefined),inactive: 8.08%
21,CCc1ccc(OP(C)(=O)N2CCN(c3ccc([N+](=O)[O-])cc3)CC2)cc1 (centres undefined),inactive: 7.79%
22,CP(=O)(NC(=O)Nc1ccccc1)Oc1ccccc1 (centres undefined),inactive: 10.4%
23,CP(=O)(Oc1ccccc1)OC(c1ccccc1)C(F)(F)F (centres undefined),inactive: -14.6%
24,CP(=O)(Nc1ccc(SC(F)(F)F)cc1)Oc1ccc(Cl)cc1 (centres undefined),inactive: -7.23%
25,Cc1cccc(C)c1OP(C)(=O)Nc1ccc(SC(F)(F)F)cc1 (centres undefined),inactive: -8.53%

row,Structure (SMILES),inhibition
1,CP(=O)(Nc1ccccn1)Oc1ccc(Cl)cc1 (centres undefined),inactive: 15.1%
2,O=[N+]([O-])c1cc([N+](=O)[O-])c(O)c([N+](=O)[O-])c1.c1ccc(Oc2ccncc2)cc1,inactive: -5.85%
3,CCOC(=O)c1ccc(NP(C)(=O)Oc2ccc(OC)cc2)cc1 (centres undefined),inactive: -4.41%
4,CCOP(C)(=S)SCC(=O)NC(C)C(=O)O (centres undefined),inactive: -0.27%
5,CP(=O)(Nc1ccccc1Br)Oc1ccccc1 (centres undefined),inactive: 1.31%
6,COc1ccccc1OP(C)(=O)Nc1ccccc1 (centres undefined),inactive: 8.49%
7,CP(=S)(Nn1cnnc1)Oc1ccccc1 (centres undefined),inactive: -0.26%
8,O=[N+]([O-])c1ccc2c(c1)C=Nc1ccccc1O2,inactive: -3.01%
9,Cc1cccc(C)c1OP(C)(N)=O (centres undefined),inactive: 0.53%
10,CC(C)(C)c1ccc(OP(C)(=O)Nc2ccc(SC(F)(F)F)cc2)cc1 (centres undefined),inactive: 6.36%
11,O=[N+]([O-])c1cc([N+](=O)[O-])c(Nc2cccnc2)c([N+](=O)[O-])c1,inactive: 9.38%
12,Cc1cc(C)cc(OP(C)(N)=O)c1 (centres undefined),inactive: -3.91%
13,COc1ccc(OP(C)(=O)Nc2cccc(F)c2)cc1 (centres undefined),inactive: 9.88%
14,COc1ccccc1OP(C)(=O)Nc1cc(Cl)ccc1C (centres undefined),inactive: 11.9%
15,Cc1ccc(NP(C)(=O)Oc2ccccc2)c(C)c1 (centres undefined),inactive: 7.88%
16,COc1ccccc1OP(C)(=O)Nc1ccc(C)cc1 (centres undefined),inactive: -2.51%
17,CCOC(=O)c1ccc(NP(C)(=O)Oc2ccccc2)cc1 (centres undefined),inactive: 0.04%
18,CCN(CC)CCCOC(=O)C(O)(c1ccccc1)c1ccccc1,inactive: -2.41%
19,COc1ccccc1-c1ccccn1.O=[N+]([O-])c1cc([N+](=O)[O-])c(O)c([N+](=O)[O-])c1,inactive: -4.97%
20,COc1ccc(OP(C)(=O)Nc2ccccn2)cc1 (centres undefined),inactive: -4.26%
21,CN(C)CCOC(=O)C(O)(c1ccccc1)C1CCCC1 (centres undefined),inactive: -4.2%
22,COc1ccccc1OP(C)(=O)Nc1ccc(Br)cc1 (centres undefined),inactive: -3.08%
23,COc1ccccc1OP(C)(=O)Nc1ccc(C)cc1C (centres undefined),inactive: -9.45%
24,CP(=O)(Nc1ccccn1)Oc1ccccc1 (centres undefined),inactive: 9.24%
25,CCc1ccc(OP(C)(=O)O)cc1,inactive: -7.07%

row,Structure (SMILES),inhibition
1,O=[N+]([O-])c1cc([N+](=O)[O-])c(Nc2ccccn2)c([N+](=O)[O-])c1,inactive: 2.51%
2,Cc1c(NP(C)(=O)Oc2ccc(C(C)C)cc2)c(=O)n(-c2ccccc2)n1C (centres undefined),inactive: -2.73%
3,COc1ccccc1OP(C)(=O)Nc1ccc(C)c(C)c1 (centres undefined),inactive: -3.62%
4,COc1ccc(OP(C)(=O)Nc2ccccc2Br)cc1 (centres undefined),inactive: 2.96%
5,Cc1cc(C)cc(OP(C)(=O)Nc2cccc(C(F)(F)F)c2)c1 (centres undefined),inactive: 4.57%
6,O=C1C(O)=C([N+](=O)[O-])C(=O)C(O)=C1[N+](=O)[O-],inactive: -11.4%
7,CP(=O)(OCCOc1ccccc1)OCCOc1ccccc1,inactive: -3.06%
8,CP(=O)(Nc1ccc(Cl)cc1Cl)Oc1ccccc1 (centres undefined),inactive: -2.67%
9,CCCCCCCCCCCCCCCC1C[N+](C)(C)CCOP(C)(=O)O1 (centres undefined),inactive: -13.7%
10,CCOC(=O)c1ccc(NP(C)(=O)Oc2ccc(Cl)cc2)cc1 (centres undefined),inactive: -11.4%
11,CP(=O)(OC12CC3CC(CC(C3)C1)C2)OC12CC3CC(CC(C3)C1)C2,inactive: -9.92%
12,Nc1ccc2c(ccc3cccnc32)n1.O=[N+]([O-])c1cc([N+](=O)[O-])c(O)c([N+](=O)[O-])c1,inactive: -6.35%
13,O=C(OCCCN1CCCC1)C(O)(c1ccccc1)C1CCCCC1 (centres undefined),inactive: 4.37%
14,COc1ccccc1OP(C)(=O)Nc1c(C)n(C)n(-c2ccccc2)c1=O (centres undefined),inactive: 1.93%
15,CCc1ccc(OP(C)(=O)Nc2cccnc2)cc1 (centres undefined),inactive: -3.92%
16,CP(=O)(Oc1ccccc1)N1CCOC1=O (centres undefined),inactive: -10.5%
17,COc1ccc(OP(C)(=O)Nc2ccc(Br)cc2)cc1 (centres undefined),inactive: -5.41%
18,CCN(CC)CC(O)COC(=O)C(O)(c1ccccc1)C1CCCCC1 (centres undefined),inactive: 5.64%
19,CN(C)C(=O)c1c([N+](=O)[O-])cc([N+](=O)[O-])cc1[N+](=O)[O-],inactive: 12.5%
20,CC(C)(C)c1ccc(OP(C)(=O)O)cc1,inactive: 4.07%
21,COc1ccccc1OP(C)(=O)Nc1ccccc1Br (centres undefined),inactive: -15.5%
22,CP(=O)(Nc1ccc(Cl)cc1)Oc1ccc(F)cc1 (centres undefined),inactive: 22.1%
23,CCOP(C)(=S)SCC(=O)NC(C)(CC)C(=O)O (centres undefined),inactive: 8.71%
24,CCOP(=O)(CC)OCC,inactive: 2.16%
25,CP(=O)(Nc1ccc(SC(F)(F)F)cc1)Oc1ccc(F)cc1 (centres undefined),inactive: -2.88%

row,Structure (SMILES),inhibition
1,Cc1ccccc1NP(C)(=O)Nc1ccccc1C,inactive: 8.96%
2,O=[N+]([O-])c1cc([N+](=O)[O-])c(C(F)(F)F)c([N+](=O)[O-])c1O,inactive: 8.21%
3,CP(=O)(Nc1ccc2c(c1)OCCO2)Oc1ccccc1 (centres undefined),inactive: -6.44%
4,CN(C)CCOC(=O)C(O)(c1ccccc1)C1CCCCC1 (centres undefined),inactive: 10.3%
5,COc1ccc(NP(C)(=O)Oc2ccccc2OC)cc1 (centres undefined),inactive: 11.9%
6,COc1ccc(OP(C)(=O)Nc2cccc(Br)c2)cc1 (centres undefined),inactive: 4.08%
7,Cc1c(C(c2ccc3c(c2)OCO3)c2c(C)n(C)n(-c3ccccc3)c2=O)c(=O)n(-c2ccccc2)n1C.O=[N+]([O-])c1cc([N+](=O)[O-])c(O)c([N+](=O)[O-])c1,inactive: 0.72%
8,O=[N+]([O-])c1ccc(OP2(=O)COCCO2)cc1 (centres undefined),inactive: -1.69%
9,O=[N+]([O-])c1cc([N+](=O)[O-])c(NCC2CCS(=O)(=O)C2)c([N+](=O)[O-])c1 (centres undefined),inactive: -4.5%
10,Cc1cc(-c2cccc3ccccc23)c(C)cn1.O=[N+]([O-])c1cc([N+](=O)[O-])c(O)c([N+](=O)[O-])c1,inactive: -4.42%
11,CCOC(=O)c1ccc(NP(C)(=O)Oc2ccc(F)cc2)cc1 (centres undefined),inactive: 11.3%
12,COc1ccc(OP(C)(=O)Nc2ccc(SC(F)(F)F)cc2)cc1 (centres undefined),inactive: 17.9%
13,CCN(CC)CCCNc1ccccc1[N+](=O)[O-].O=[N+]([O-])c1cc([N+](=O)[O-])c(O)c([N+](=O)[O-])c1,inactive: -2.41%
14,CP(=O)(Nc1ccccc1)Oc1ccc(F)cc1 (centres undefined),inactive: -11.3%
15,O=[N+]([O-])c1cc([N+](=O)[O-])c(OC2CCCCC2O)c([N+](=O)[O-])c1 (centres undefined),inactive: -2.83%
16,CCCCCOc1ccc(NP(C)(=O)Oc2ccc(Cl)cc2Cl)cc1 (centres undefined),inactive: 16.9%
17,Cc1c([N+](=O)[O-])cc([N+](=O)[O-])c(Br)c1[N+](=O)[O-],inactive: 0.3%
18,CCN(CC)CCCOC(=O)C(O)(c1ccccc1)C1CCCCC1 (centres undefined),inactive: -1.68%
19,CP(=O)(Nc1ccccc1F)Oc1ccccc1 (centres undefined),inactive: 6.22%
20,CC(C)c1ccc(OP(C)(=O)Nc2ccc(SC(F)(F)F)cc2)cc1 (centres undefined),inactive: 0.69%
21,O=[N+]([O-])c1cc([N+](=O)[O-])c(Nc2ccc(Cl)cc2)c([N+](=O)[O-])c1,inactive: -0.9%
22,COc1ccc2c(c1O)-c1c(O)c(OC)cc3c1[C@H](C2)[N+](C)(C)CC3.O=[N+]([O-])c1cc([N+](=O)[O-])c([O-])c([N+](=O)[O-])c1[O-],inactive: 11.4%
23,O=C(OC1CN2CCC1CC2)c1ccc([N+](=O)[O-])cc1 (centres undefined),inactive: 9.62%
24,O=C(OCCN1CCN(CCOCc2ccccc2)CC1)C(O)(c1ccccc1)c1ccccc1,inactive: -6.12%
